Source: US9234200B2, “Oligonucleotide, glucocorticoid sensitivity enhancer, pharmaceutical composition, and expression vector” (National University Corporation Tokyo University of …, priority 2011, dated 2016)

Tested on: Raji cells
Assay: Survival of SCID mice inoculated intraperitoneally with oligonucleotide 4-expressing or control Raji cells, with or without dexamethasone
Details: dexamethasone 15 mg/kg intraperitoneal everyday, label dexamethasone = Control Raji cells

For `C[C@@H]1C[C@H]2[C@@H]3CCC4=CC(=O)C=C[C@]4(C)[C@@]3(F)[C@@H](O)C[C@]2(C)[C@@]1(O)C(=O)CO` [dexamethasone, reference compound], the survival rate (Day 1) was 100%, the survival rate (Day 2) was 100% and the survival rate (Day 3) was 100%. The survival rate (Day 4) was 100%, the survival rate (Day 5) was 100% and the survival rate (Day 6) was 100%. For the same compound, the survival rate (Day 7) was 100%, the survival rate (Day 8) was 100% and the survival rate (Day 9) was 100%. It also gave a survival rate (Day 10) of 100%, a survival rate (Day 11) of 100% and a survival rate (Day 12) of 100%. The survival rate (Day 13) was 100%, the survival rate (Day 14) was 100% and the survival rate (Day 15) was 100%. It also gave a survival rate (Day 16) of 100%, a survival rate (Day 17) of 100% and a survival rate (Day 18) of 100%. For the same compound, the survival rate (Day 19) was 100%, the survival rate (Day 20) was 90% and the survival rate (Day 21) was 90%. For the same compound, the survival rate (Day 22) was 90%, the survival rate (Day 23) was 80% and the survival rate (Day 24) was 80%. The survival rate (Day 25) was 80%, the survival rate (Day 26) was 80% and the survival rate (Day 27) was 70%. It also gave a survival rate (Day 28) of 60%, a survival rate (Day 29) of 60% and a survival rate (Day 30) of 60%. It also gave a survival rate (Day 31) of 60%, a survival rate (Day 32) of 60% and a survival rate (Day 33) of 60%. The survival rate (Day 34) was 60%, the survival rate (Day 35) was 60% and the survival rate (Day 36) was 50%.
